Experimental data taken from patent US11400269B2, “Using alternating electric fields to increase permeability of the blood brain barrier” (Novocure GmbH, priority 2018, dated 2022).

Test system: artificial BBB (cerebEND, immortalized murine brain capillary endothelial cells)
Conditions: 100 kHz alternating electric fields for 72 hours; 4 kDa molecular weight; vs control without fields

**Q.** For “fluoresceine isothiocyanate coupled to dextran [FITC-dextrans]”, which “permeability of the artificial BBB to FITC-dextrans” value is on record?
**A.** 110 % of the control
